Assay results published in patent US5552308A, “CDNA clone of a rat serotonin transporter and protein encoded thereby” (priority 1991, dated 1996).

Protein sequences, listed by entry. Tags and fused reporters are not part of them.
UniProt P31652, whole entry: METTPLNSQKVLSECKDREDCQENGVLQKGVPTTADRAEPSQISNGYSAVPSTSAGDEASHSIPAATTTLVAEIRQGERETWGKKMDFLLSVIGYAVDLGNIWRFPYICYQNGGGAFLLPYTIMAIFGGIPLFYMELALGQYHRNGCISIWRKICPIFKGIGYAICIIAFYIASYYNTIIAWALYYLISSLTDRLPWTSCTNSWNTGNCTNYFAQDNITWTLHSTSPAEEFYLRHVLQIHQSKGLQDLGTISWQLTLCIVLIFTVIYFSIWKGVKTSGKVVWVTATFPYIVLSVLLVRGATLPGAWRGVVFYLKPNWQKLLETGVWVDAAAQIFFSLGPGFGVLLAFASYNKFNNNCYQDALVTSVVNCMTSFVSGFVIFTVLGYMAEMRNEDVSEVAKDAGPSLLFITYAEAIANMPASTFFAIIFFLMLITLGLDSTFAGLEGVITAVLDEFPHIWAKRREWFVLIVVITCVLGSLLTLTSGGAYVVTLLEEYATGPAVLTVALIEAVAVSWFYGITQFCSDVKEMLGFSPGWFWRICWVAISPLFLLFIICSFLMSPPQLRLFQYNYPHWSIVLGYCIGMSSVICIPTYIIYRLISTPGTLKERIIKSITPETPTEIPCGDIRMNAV

Target: 5-HT transporter (Rattus norvegicus, UniProt P31652)
Experiment: Inhibition of 3H-5-HT uptake in CV-1 cells transfected with the 5-HT transporter cDNA
Type: cell-based
Conditions: for inhibition of 5-HT uptake (in words): CV-1 cells transfected with 5HTT cDNA

Row | SMILES | Ki [nM] | inhibition of 5-HT uptake (in words)
1 | COC(=O)[C@H]1[C@H]2C[C@@H]3c4[nH]c5cc(OC)ccc5c4CCN3C[C@H]2C[C@@H](OC(=O)c2cc(OC)c(OC)c(OC)c2)[C@@H]1OC [reserpine] | > 10000 | ineffective at blocking 5-HT uptake
2 | CCN[C@@H](C)Cc1cccc(C(F)(F)F)c1 [S(+)fenfluramine] | 129 ± 28 | also blocks uptake
3 | Fc1ccc([C@@H]2CCNC[C@H]2COc2ccc3c(c2)OCO3)cc1 [paroxetine] | 3.1 ± 0.8 | potently inhibited
4 | COC(=O)[C@H]1[C@@H](OC(=O)c2ccccc2)C[C@@H]2CC[C@H]1N2C [cocaine] | 1080 ± 150 | –
